## Apparent affinities of Ab-14 variants for a coronavirus HR2 peptide

Target: peptide PDVDLGDISGINAS, taken from heptad repeat 2 (HR2) of SARS-CoV-2 spike.

The variants keep the light chain, the linker and the frameworks of Ab-14 (scFv order VH, the linker GGGGSGGGGSGGGGS, VL).
VH: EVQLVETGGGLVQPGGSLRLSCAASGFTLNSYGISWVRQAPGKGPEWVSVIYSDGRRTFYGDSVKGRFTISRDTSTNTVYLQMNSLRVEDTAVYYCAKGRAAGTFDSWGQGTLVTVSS
VL: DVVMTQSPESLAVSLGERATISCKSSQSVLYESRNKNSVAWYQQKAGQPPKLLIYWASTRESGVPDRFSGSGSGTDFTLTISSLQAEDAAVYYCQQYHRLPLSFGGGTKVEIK

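The parent was found by panning a naive human phage display library on the peptide. This is the validation round: designs drawn from the data on random variants, tested in the same kind of assay. Group labels follow the data file (Ctrl: baseline library sampled from a position-specific scoring matrix, with some repeated check sequences; Rand: our label for a block that the file lists under HC and that is probably the random mutants of the ten best first-round binders; En: ensemble of fine-tuned language models; GP: Gaussian process model; GPLM: also part of the Gaussian process libraries; HC: hill climbing; Gen: genetic algorithm; Gibbs: Gibbs sampling; a sequence that several methods proposed may carry one label only). The assay is AlphaSeq: two haploid yeast populations carry antibody and antigen on their surface. The frequency of each diploid, read from paired DNA barcodes, reflects how well the two displayed proteins bind. Scores were corrected for input abundance and mapped to Kd with protein pairs of known affinity run in the same pool. Mating was done six times.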

Changes read parent residue, position, new residue, counted from the first residue of the VH shown.
Variants here have at most six changes.
Values are apparent Kd, the geometric mean of the replicates that gave a signal; lower means stronger binding.
"no signal" marks a missing value. The strain was present, yet no cells mated with the target were sequenced in any replicate, which points to weak or no binding.
Values of this round are not directly comparable with the first-round values of the same sequences.
The authors' rule: three or more of the six replicates give a measured affinity, fewer mean a poor binder.
A sequence that the file lists under several names has all its replicates pooled.
Nonspecific signal, from three strains lacking the peptide, appeared in 1% of pairings of all heavy chain designs, centred on 120 nM (5% of these signals below 7.0 nM); values are not corrected for it.

The variant T28E R56K G61S R100Q [GPLM_Gibbs] showed 6.1 nM (6 of 6 replicates).
The variant G26S T28N A101T [GP_Gen] showed 48 nM (1 of 6 replicates).
The variant T28Q G61Q R100T A101L A102C [Ctrl] showed no signal (0 of 6 replicates).
The variant T28D S35C T104W D106N [Rand] showed no signal (0 of 6 replicates).
The variant G26E S53A R100Q S107K [GP_Gibbs] showed 21 nM (4 of 6 replicates).
The variant T28S F59A G61K [GP_Gen] showed 1.3 nM (6 of 6 replicates).
The variant G26K T28E S53A R100E [GP_Gen] showed 16 nM (6 of 6 replicates).
The variant L29I F105W D106P [Ctrl] showed no signal (0 of 6 replicates).
The variant S31E Y52S G55T G61T A101F A102S [Rand] showed no signal (0 of 6 replicates).
The variant N30D R100N A101E S107T [GP_Gibbs] showed 520 pM (6 of 6 replicates).
The variant S31D D54V F59Q G61I [Rand] showed no signal (0 of 6 replicates).
The variant T28D G61V A101R D106E [GP_HC] showed no signal (0 of 6 replicates).
The variant T28A S31E A101M S107T [GP_Gen] showed 4.5 nM (6 of 6 replicates).
The variant G26L [Ctrl] showed no signal (0 of 6 replicates).
The variant S31E R100E S107N [GP_HC] showed 12 nM (6 of 6 replicates).
The variant T28D F59A A101T [GPLM_Gibbs] showed 1.1 nM (6 of 6 replicates).
The variant F27N S31E G61I A101C [GP_HC] showed no signal (0 of 6 replicates).
The variant T28S S31M F59Q G61D [GP_HC] showed 2.5 nM (1 of 6 replicates).
The variant T28Q S31D G61I S63T R100N [GP_HC] showed 11 nM (6 of 6 replicates).
The variant T28N S31E G61H A101F [GP_HC] showed 3.4 nM (6 of 6 replicates).
The variant G33W K65R T104Y S107Q [Ctrl] showed no signal (0 of 6 replicates).
The variant G61T R100M [GP_HC] showed 4.3 nM (1 of 6 replicates).
The variant T28D G61Q R100K [GPLM_HC] showed no signal (0 of 6 replicates).
The variant T28D A101R [GPLM_Gen] showed no signal (0 of 6 replicates).
The variant T28D S63A A101E S107T [GP_Gibbs] showed 690 pM (6 of 6 replicates).
The variant G61S A101T [Ctrl+GPLM_Gen] showed 2.7 nM (12 of 12 replicates).
The variant F27Y N30A R100W [Ctrl] showed no signal (0 of 6 replicates).
The variant T28D S31E S53A G61K R100E A101V [En_HC] showed 190 pM (6 of 6 replicates).
The variant T28S S53A R100M [GPLM_Gen] showed 450 pM (6 of 6 replicates).
The variant G61I G103K T104D [Ctrl] showed no signal (0 of 6 replicates).
The variant G26K T28D R100K A101T [GP_Gen] showed 5.0 nM (5 of 6 replicates).
The variant T28H G61A R100W A101T [GP_Gen] showed 2.0 nM (6 of 6 replicates).
The variant Y52I A102I [Ctrl] showed no signal (0 of 6 replicates).
The variant T28D G61V R100K A101Q [GP_Gen] showed 10 nM (6 of 6 replicates).
The variant T28D G61I D106V S107M [GP_HC] showed no signal (0 of 6 replicates).
The variant T28S S31E R100V S107R [GP_HC] showed 5.4 nM (6 of 6 replicates).
The variant R56Q G61S V64Y [Ctrl] showed no signal (0 of 6 replicates).
The variant N30E S31E S107E [GP_HC] showed no signal (0 of 6 replicates).
The variant S31D F59Q G61I D62E [Rand] showed 5.2 nM (6 of 6 replicates).
The variant R100N A101V [GPLM_Gen] showed 590 pM (6 of 6 replicates).
The variant F27E S63N G99A [Ctrl] showed no signal (0 of 6 replicates).
The variant G26H T28S G61A R100N [GPLM_Gen] showed 140 nM (2 of 6 replicates).
The variant R56Q G61D A101L [Rand] showed 2.9 nM (6 of 6 replicates).
The variant S31E R100W S107T [GPLM_Gen] showed 1.7 nM (4 of 6 replicates).
The variant T28D N30E S31E S53F G61T S107C [Ctrl] showed 2.2 nM (6 of 6 replicates).
The variant G26K T28Q G61Q A101T [GP_Gibbs] showed 6.8 nM (1 of 6 replicates).
The variant F27N N30L R56M T58V R100Q A102I [Ctrl] showed no signal (0 of 6 replicates).
The variant T28E S31M R56K A101T [GP_Gen] showed 5.7 nM (6 of 6 replicates).

From the list, the first 4 with no signal in any replicate:

For T28Q G61Q R100T A101L A102C [Ctrl], the assay gave no signal (0 of 6 replicates).
For T28D S35C T104W D106N [Rand], the assay gave no signal (0 of 6 replicates).
For L29I F105W D106P [Ctrl], the assay gave no signal (0 of 6 replicates).
For S31E Y52S G55T G61T A101F A102S [Rand], the assay gave no signal (0 of 6 replicates).

Source: Li et al. 2023 (doi:10.1038/s41467-023-39022-2), MIT Lincoln Laboratory and A-Alpha Bio; data file from the FLAb repository.